Assay results published in patent publication US20060210527A1, “Cyclodextrin-based polymers for therapeutics delivery” (published 2006).

Columns and labels:
[1] = test system: human LS174T colon carcinoma; assay: Antitumor efficacy study, LS174T xenograft; conditions: for Ns (mice surviving) / Median Tumor Burden: Day 114; for Median TTE: endpoint 1500 mg; for Maximum MBW loss: tumor-bearing mice
[2] = test system: nude mice; assay: Determination of maximum tolerable dose (MTD) for CDP-CPT conjugates
[3] = Group 3: 100 mg irinotecan/kg i.p. Qwk x 3

## CC[C@@]1(O)C(=O)OCc2c1cc1n(c2=O)Cc2cc3ccccc3nc2-1
[1]; Group 2: 9 mg/kg i.p. Q4D x 2
  Ns (mice surviving): −(0)
  Median TTE: 51.4 days
  Maximum MBW loss: 13.1%

## CCc1c2c(nc3ccc(OC(=O)N4CCC(N5CCCCC5)CC4)cc13)-c1cc3c(c(=O)n1C2)COC(=O)[C@]3(O)CC
[1]; [3]
  Median Tumor Burden: 1152 mg
  Ns (mice surviving): 3
  Median TTE: 68.7 days
[1]; Group 3: 100 mg irinotecan/kg i.p. Qwk x 3, listed as irinotecan
  Median Tumor Burden: 1,152 mg

## Poly(CDDCys-PA-PEG)-Gly-CPT
[1]; 4.5 mg CPT/kg i.v. Q4D x 3
  Median Tumor Burden: 668 mg
  Ns (mice surviving): 2
  Median TTE: 74.2 days
[1]; 9 mg CPT/kg i.v. Q4D x 3
  Median Tumor Burden: 394 mg
  Ns (mice surviving): 4
[1]; 9 mg CPT/kg i.v. Q4D x 3, 114 days = maximum possible
  Median TTE: 114 days and 114.0 days
[1]; at MTD, 9 mg CPT/kg i.v. Q4D x 3
  Maximum MBW loss: 3.4%
[2]; 2.25 mg CPT/kg i.v. Days 1, 5, 9
  NTR/N (treatment-related deaths to mice treated): 0/5
[2]; 4.5 mg CPT/kg i.v. Days 1, 5, 9
  NTR/N (treatment-related deaths to mice treated): 0/5
[2]; 9 mg CPT/kg i.v. Days 1, 5, 9
  NTR/N (treatment-related deaths to mice treated): 0/5
[2]; 18 mg CPT/kg i.v. Days 1, 5, 9
  NTR/N (treatment-related deaths to mice treated): 3/3
[2]; 36 mg CPT/kg i.v. Days 1, 5, 9
  NTR/N (treatment-related deaths to mice treated): 3/3
[2]; 54 mg CPT/kg i.v. Days 1, 5, 9
  NTR/N (treatment-related deaths to mice treated): 3/3
[2]; i.v. Days 1, 5, 9, non-tumor bearing nude mice
  MTD: 9 mg CPT/kg

Where “and” joins values, the source holds several entries; their conditions need not be identical. Equal values may be shown once.
